Assays:
[1] = test system: intracellular cAMP levels in T84 cells; details: 20 μM; 1 h
[2] = test system: intracellular Ca^2+ levels in T84 cells; details: 20 μM

CC[C@H](C)C(=O)O[C@H]1C[C@@H](C)C=C2C=C[C@H](C)[C@H](CC[C@@H]3CC=CC(=O)O3)[C@H]21 [DHLV, α,β-dehydrolovastatin]
Effect on intracellular cAMP levels [1]: did not affect | Effect on ATP-induced intracellular Ca^2+ elevation (AUC) [2]: no significant effects

Source: article PMC9770395 (PLOS Neglected Tropical Diseases, 2022)
